Experimental data: PubChem BioAssay AID493034 (The Scripps Research Institute Molecular Screening Center, 2011)
This is a selection; strong and weak results do not stand in their true shares. Active and inactive are the calls of the source.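 Rule for the calls: active = mean inhibition over triplicate runs exceeds the cutoff derived for the earlier primary screen (cut at about 25% in these data); inactive = the rest.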

Chains of the proteins cited; added tags and fusions are not shown.
UniProt P68402, whole entry: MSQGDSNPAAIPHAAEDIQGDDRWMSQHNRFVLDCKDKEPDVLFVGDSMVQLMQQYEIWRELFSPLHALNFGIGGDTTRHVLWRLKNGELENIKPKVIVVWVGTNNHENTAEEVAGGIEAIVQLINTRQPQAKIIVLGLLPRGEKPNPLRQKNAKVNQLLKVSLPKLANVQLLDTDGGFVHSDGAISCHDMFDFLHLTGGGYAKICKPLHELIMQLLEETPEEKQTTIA

Target: Platelet-activating factor acetylhydrolase IB subunit alpha2 (Homo sapiens) (UniProt P68402)
Test: inhibition of human PAFAH1B2 catalytic subunit – biochemical, fluorescence polarization, FP-rhodamine probe, triplicate, confirmation (AID 493034);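 note: 0% = enzyme with DMSO and 100% = wells lacking PAFAH1B2 protein; inhibitors lower polarization by leaving the probe unbound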
Conditions: recombinant PAFAH1B2, FP-rhodamine probe fluorescence polarization; at 3.39 µM; hits give high values

| Compound | inhibition |
| --- | --- |
| CC(C)c1ccc(OP(C)(=O)Nc2ccc(SC(F)(F)F)cc2)cc1 (configuration not stated) | active: 42.5% |
| CC(C)(C)c1ccc(OP(C)(=O)Nc2ccc(SC(F)(F)F)cc2)cc1 (configuration not stated) | active: 31.7% |
